This note sets out measurements from PubChem BioAssay AID1861 (The Scripps Research Institute Molecular Screening Center, 2009).

Chains of the proteins cited; added tags and fusions are not shown.
UniProt P48145, whole entry: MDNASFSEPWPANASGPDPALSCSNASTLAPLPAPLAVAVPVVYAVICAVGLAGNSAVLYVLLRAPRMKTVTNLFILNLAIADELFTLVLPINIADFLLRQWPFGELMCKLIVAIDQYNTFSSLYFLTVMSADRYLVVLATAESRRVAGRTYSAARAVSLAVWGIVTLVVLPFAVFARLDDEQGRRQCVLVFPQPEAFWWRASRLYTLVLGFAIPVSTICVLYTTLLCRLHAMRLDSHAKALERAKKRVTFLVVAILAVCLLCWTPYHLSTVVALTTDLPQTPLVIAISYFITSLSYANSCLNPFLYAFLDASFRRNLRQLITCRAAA

The list shows a part of the results, in another mix than the full data. Calls of active or inactive are those of the source. Cut-off read from the data, not from the text of the source: active = inhibition above about 16% (passing the limit was not always enough); inactive = the rest.

The experiment concerns the target Neuropeptides B/W receptor type 1 (Homo sapiens) (UniProt P48145). Nature of the experiment: GPR7 receptor antagonists, primary screen, cell-based, fluorescence, single concentration (AID 1861).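 Note: cells stimulated with the agonist NPW; 0% = agonist with vehicle and 100% = vehicle without agonist.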 The following applies: GPR7-expressing cells, fluorescence antagonist assay; at 4.4 µM; stronger effect = higher value.
For orientation: inhibition means the relative decrease from the control value, in per cent. For the compound `COc1ccc(NC2CCN(C(=O)OC(C)(C)C)CC2)cc1`, the inhibition was inactive: 3.73%.
Next, `CN1CCN(CCOC(=O)C(O)(c2ccccc2)c2ccccc2)CC1`: inactive: -5.49%; `O=C(NCC1(N2CCOCC2)CCCCC1)c1cc(=O)[nH]c2ccccc12`: inactive: 6.03%.
Next, `COc1cc(C(=O)NCC2(N3CCCCC3)CCCCC2)ccc1OC(F)F`: inactive: -4.88%.
Next, `O=C(NCC1(N2CCCCC2)CCCCC1)c1cccc(C(F)(F)F)c1`: inactive: 0.67%; `O=C(NCC1(N2CCCCC2)CCCCC1)c1cccc([N+](=O)[O-])c1`: inactive: -1.76%.
Take `N#CC1(Nc2ccccc2)CCN(CCc2ccccc2)CC1`: the inhibition was inactive: -2.48%.
Next, `CCN1CCC(Nc2ccc(Cl)cc2)CC1`: inactive: -9.83%; `O=C(NCC1(N2CCCCC2)CCCCC1)c1ccc(OC(F)F)cc1`: inactive: -1.29%; `CCCOc1ccc(C(=O)NCC2(N(C)C)CCCCC2)cc1OC`: inactive: 2.39%.
Next, `CN1CCC(Nc2cccc(F)c2)CC1`: inactive: 2.2%.
Next, `COc1cc(OC)c(C(=O)NCC2(N(C)C)CCCCC2)cc1OC`: inactive: -2.02%.
With `CN(C)c1cccc(C(=O)NCC2(N3CCCCC3)CCCCC2)c1`, the inhibition is inactive: 1.59%.
Next, `COc1ccc(CN(CCCl)CCCl)cc1Cl`: inactive: -13.7%; `CC(C)c1ccc(NC2CCN(C(=O)OC(C)(C)C)CC2)cc1`: inactive: -3.61%; `CCOC(=O)N1CCC(Nc2ccc(OC)cc2)CC1`: inactive: -8.47%.
Next, `N#CC1(Nc2ccccc2)CCN(Cc2ccccc2)CC1`: inactive: 0.78%; `O=C(OC1CN2CCC1CC2)C1c2ccccc2Oc2ccccc21` (centres undefined): inactive: -5.28%; `O=C(NCC1(N2CCOCC2)CCCCC1)c1cc2ccccc2o1`: inactive: -5.51%.
The value for `Cc1cc(C)cc(N(C(=O)c2ccccc2)C2CCN(C(=O)OC(C)(C)C)CC2)c1` was inactive: -15.3%.
Take `CSc1ccccc1C(=O)NCC1(N2CCCCC2)CCCCC1`: the inhibition is inactive: 7.01%.
Next, `O=C(NCC1(N2CCCCC2)CCCCC1)c1ccc(=O)[nH]c1`: inactive: -0.45%; `CC(C)(C)OC(=O)N1CCC(N(C(=O)c2ccccc2)c2ccc(F)cc2)CC1`: inactive: 6.98%.
On to `COc1ccc(C(=O)NCC2(N3CCCCC3)CCCCC2)c(OC)c1OC`, for which the inhibition is inactive: -15.5%.
Next, `COc1ccc(C(=O)NCC2(N3CCCCC3)CCCCC2)cc1`: inactive: -13.3%; `Cc1ccc(OCC(C)C)c(CN(CCCl)CCCl)c1`: inactive: 2.54%.
Next, `CCOC(=O)N1CCC(Nc2cccc(C)c2)CC1`: inactive: -12.8%; `COc1cc(C(=O)NCC2(N(C)C)CCCCC2)ccc1OC(F)F`: inactive: -6.88%; `CCOC(=O)N1CCC(Nc2ccc(F)cc2)CC1`: inactive: -1.74%.
For the compound `COc1ccc(NC2CCN(CCc3ccccc3)CC2)c(OC)c1`, the inhibition is inactive: -9.28%.
The value for `O=C(NCC1(N2CCCCC2)CCCCC1)c1ccc(F)cc1` was inactive: -11.1%; that for `CCOc1ccc(C)cc1CN(CCCl)CCCl` was inactive: 3.79%.
As to `CN(C)c1ccc(C(=O)NCC2(N3CCCCC3)CCCCC2)cc1`, the inhibition was inactive: -0.59%.
Next, `CCN1CCC(Nc2cccc(F)c2)CC1`: inactive: -2.12%; `COc1cc(OC)cc(C(=O)NCC2(N3CCCCC3)CCCCC2)c1`: inactive: -2.63%.
The value for `CCCOc1ccc(C)cc1CN(CCCl)CCCl` was inactive: -6.95%; that for `CN1CCC(Nc2ccc(Cl)cc2)CC1` was inactive: -3.42%.
Next, `CCC(CO)(C(=O)OC1CN2CCC1CC2)c1ccccc1` (centres undefined): inactive: -4.11%.
Consider `COc1cccc(C(=O)N(c2cc(C)cc(C)c2)C2CCN(C(=O)OC(C)(C)C)CC2)c1`, for which the inhibition was inactive: 2.96%.
With `COc1cc(OC)cc(C(=O)NCC2(N3CCOCC3)CCCCC2)c1`, the inhibition was inactive: 5.71%.
As to `CCCOc1ccc(C(=O)NCC2(N(C)C)CCCCC2)cc1`, the inhibition was inactive: -16.3%.
`O=C(O)C1(Nc2ccccc2)CCN(Cc2ccccc2)CC1`: the inhibition was inactive: 5.01%.
As for `CC(C)(C)OC(=O)N1CCC(Nc2ccccc2)CC1`, the inhibition was inactive: -14.6%.
The value for `CN1CCC(Nc2ccc(F)c(Cl)c2)CC1` was inactive: 0.73%.
The value for `CCOc1ncccc1C(=O)NCC1(N2CCOCC2)CCCCC1` was inactive: -12.1%; that for `O=C(OC1CN2CCC1CC2)C1c2ccccc2C=Cc2ccccc21` (centres undefined) was inactive: 3.62%; that for `N/C(=N\O)c1c(N)no[n+]1[O-]` was inactive: -2.96%.
Next, `CCOC(=O)N1CCC(Nc2ccc(C)cc2)CC1`: inactive: 1.57%; `COc1ccc(C(=O)NCC2(N3CCOCC3)CCCCC2)cc1OC`: inactive: 1.63%.
Take `CCCN1CCC(Nc2cc(OC)cc(OC)c2)CC1`: the inhibition was inactive: -0.29%.
The value for `c1ccc(CN2CCC(Nc3ccccc3)CC2)cc1` was inactive: -1.85%; that for `CN(C)C1(CNC(=O)c2cccc(C#N)c2)CCCCC1` was inactive: -4.23%; that for `CC(C)(C)OC(=O)N1CCC(N(C(=O)c2ccccc2)c2ccc(Cl)cc2)CC1` was inactive: -11.6%.
Next, `N#Cc1ccc(C(=O)NCC2(N3CCCCC3)CCCCC2)cc1`: inactive: 0.32%.
